The list shows a part of the results, in another mix than the full data. Some results for these compounds are left out of this collection, so the calls shown say nothing about other tests. Calls of active or inactive are those of the source. No stated cut-off is given here; in the data, active means activation above about 5% (passing the limit was not always enough); inactive means the rest.
molecular target: Galanin receptor type 2 (Homo sapiens) (UniProt O43603); assay: human galanin receptor 2 activators – cell-based, primary screen (AID 803); conditions: GALR2-expressing cells, agonist activation read-out; at 5.6 µM; active compounds read high;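 further: 0% = vehicle buffer wells and 100% = reference agonist at full effect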

Amino acid sequences for entries named in this document (tags omitted).
UniProt O43603, whole entry: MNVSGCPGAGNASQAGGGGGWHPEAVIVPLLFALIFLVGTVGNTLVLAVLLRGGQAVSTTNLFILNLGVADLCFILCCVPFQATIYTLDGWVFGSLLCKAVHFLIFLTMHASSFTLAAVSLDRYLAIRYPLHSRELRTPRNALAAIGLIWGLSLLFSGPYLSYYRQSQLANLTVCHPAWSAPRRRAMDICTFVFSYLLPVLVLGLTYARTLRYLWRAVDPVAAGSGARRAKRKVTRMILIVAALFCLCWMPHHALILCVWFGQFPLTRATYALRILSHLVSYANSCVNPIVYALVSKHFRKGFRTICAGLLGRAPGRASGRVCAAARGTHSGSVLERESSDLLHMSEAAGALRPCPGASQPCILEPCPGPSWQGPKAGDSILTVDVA

| Structure (SMILES) | activation |
| --- | --- |
| CCN1CCCC(OC(=O)C2(O)c3ccccc3C=Cc3ccccc32)C1 (stereo not given) | inactive: -0.26% |
| CN(C)C1CCCC1OC(=O)C(O)(c1ccccc1)c1ccccc1 (stereo not given) | inactive: -0.42% |
| CC(C)N1C(=O)CC2(CCN(CCOC(=O)C(O)(c3ccccc3)c3ccccc3)CC2)C1=O | inactive: -0.7% |
| CN(C)c1cccc(C(=O)NCC2(N(C)C)CCCCC2)c1 | inactive: -1.04% |
| O=C(OC1CN2CCC1CC2)C(CO)(c1ccccc1)c1ccccc1 (stereo not given) | inactive: -0.39% |
